Amino acid sequences for entries named in this document (tags omitted).
UniProt P21554, whole entry: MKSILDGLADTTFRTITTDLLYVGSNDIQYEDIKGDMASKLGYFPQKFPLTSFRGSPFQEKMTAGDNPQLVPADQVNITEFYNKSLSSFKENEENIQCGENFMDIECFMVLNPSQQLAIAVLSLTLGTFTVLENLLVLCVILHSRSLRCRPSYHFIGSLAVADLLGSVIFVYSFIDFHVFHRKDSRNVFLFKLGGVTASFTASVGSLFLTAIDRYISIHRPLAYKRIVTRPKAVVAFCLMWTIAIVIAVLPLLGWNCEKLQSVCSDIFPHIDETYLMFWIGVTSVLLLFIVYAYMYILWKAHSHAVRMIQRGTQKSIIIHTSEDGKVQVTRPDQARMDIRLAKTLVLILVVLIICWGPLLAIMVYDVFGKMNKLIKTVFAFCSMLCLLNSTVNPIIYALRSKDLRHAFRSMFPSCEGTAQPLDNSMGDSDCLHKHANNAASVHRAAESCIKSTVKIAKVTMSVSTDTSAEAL

In patent publication US10435371B2, “Multifunctional aminoquinoline therapeutic agent” (LOHOCLA RESEARCH CORPORATION, priority 2014, dated 2019):

Biological target: T1, cannabinoid CB1 receptor (Homo sapiens, UniProt P21554)
T1 construct: expressed in transfected cells; host or cells: HeLa (ATCC), calcium phosphate transient transfection
Test: cAMP accumulation, HeLa cells transfected with CB1 receptor, D1 receptor and AC7
Format: cell-based
Details: AM251 10 μM with DA and DCUK-OEt

## Cc1c(C(=O)NN2CCCCC2)nn(-c2ccc(Cl)cc2Cl)c1-c1ccc(I)cc1 [AM251, reference compound]
  Effect of CB1 receptor antagonist on the cAMP increase: eliminated the DCUK-OEt effect
